Results published in BindingDB's records for 2542556.

Amino acid sequences for entries named in this document (tags omitted).
UniProt P41143, whole entry, looked up: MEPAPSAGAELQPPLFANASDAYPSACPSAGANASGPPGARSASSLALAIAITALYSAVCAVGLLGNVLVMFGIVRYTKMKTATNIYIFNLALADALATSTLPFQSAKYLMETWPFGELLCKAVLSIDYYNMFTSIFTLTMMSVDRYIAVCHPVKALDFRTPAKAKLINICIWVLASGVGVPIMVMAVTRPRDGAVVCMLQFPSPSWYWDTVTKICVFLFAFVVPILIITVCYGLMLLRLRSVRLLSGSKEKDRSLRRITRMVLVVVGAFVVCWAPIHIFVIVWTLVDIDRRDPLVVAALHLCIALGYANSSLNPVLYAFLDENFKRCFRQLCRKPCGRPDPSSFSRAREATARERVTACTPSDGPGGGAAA

molecular target: T1, Delta-type opioid receptor (Homo sapiens, UniProt P41143); assay: ASSAY_NAME: ChEBML_146883 DESCRIPTION: Inhibitory activity against Opioid receptor delta 1 of guinea pig was determined by using [3H]DADLE radioligand

SMILES | IC50 [µM]
CN1CC[C@]23CCCC[C@H]2[C@H]1Cc1ccc(O)cc13 | 0.0029
CN1CCC[C@@]12CCCC[C@@H]2NC(=O)CCc1ccccc1 | > 10

molecular target: T1, Delta-type opioid receptor; assay: ASSAY_NAME: ChEMBL_146883 (CHEMBL751658) DESCRIPTION: Inhibitory activity against Opioid receptor delta 1 of guinea pig was determined by using [3H]DADLE radioligand

SMILES | IC50 [µM]
CN1CCC[C@@]12CCCC[C@@H]2NS(=O)(=O)c1ccc(Br)cc1 | > 10
CN1CCC[C@@]12CCCC[C@@H]2NC(=O)Cc1ccc(Cl)c(Cl)c1 | 5.8
CN(C(=O)Cc1ccc(Cl)c(Cl)c1)[C@H]1CCCC[C@@]12CCCN2C | > 10
CN1CCC[C@@]12CCCC[C@@H]2NC(=O)Cc1ccc(Br)cc1 | > 10
